Data published in patent US20210223237A1, “COMPOSITIONS AND METHODS FOR STUDYING DRUG METABOLISM” (Boehringer Ingelheim International GmbH, priority 2020, published 2021).

Experiment: Microsomal binding (fu,mic) using rapid equilibrium dialysis (RED)
Conditions: compound 1.0 μM, (SD)

With Cc1ncc2n1-c1ccc(Cl)cc1C(c1ccccc1F)=NC2 [Midazolam, midazolam] the “fu,mic” value (HLM 0.50 mg/ml) was 0.67 (0.06) and the “fu,mic” value (HLM 1.0 mg/ml) was 0.52 (0.08).
